Test results as given in patent US20090094703A1, “Novel medulloblastoma-forming cell line” (The Hospital For Sick Children, priority 2007, published 2009).

Test system: Hh signaling
Conditions: 5 μM, 7 days, serum free Ptc1+/- medulloblastoma cell lines
Method: C57/B6 Trp53^+/− mice (Jackson Laboratory, Maine, USA) and Ptc1^+/− mice were mated to generate a Ptc1^+/−p53^+/− breeding colony. Mice with symptoms of medulloblastoma, domed appearance of the head, unsteadiness of gait, were sacrificed by cervical dislocation. Brains were removed and tumours microdissected, dissociated by gentle pipetting in PBS and filtered through a […] nylon filter. Cells were grown in serum free conditions with 20 ng/ml epidermal growth factor (EGF) and 20 ng/ml basic fibroblast growth factor (FGF) as previously described (Diamandis, P. et al. Nat Chem Biol 3, 268-73 (2007); Reynolds, B. A. & Weiss, S. Science 255, 1707-10 (1992)). […] 50 μl fresh media and inhibitor was added every second day. For differentiation analysis, cells were grown in DMEM/F12 media supplemented with 10% foetal bovine serum for 7 days. MTT assays were performed as previously described (Diamandis, P. et al. Nat Chem Biol 3, 268-73 (2007))
Hh and Notch target genes were analyzed by RT-PCR and/or Western blot by standard procedures using the primers in the following Table 2.

## CC1=C2C[C@H]3[C@@H](CC=C4C[C@@H](O)CC[C@@]43C)[C@@H]2CC[C@]12O[C@@H]1C[C@H](C)CN[C@H]1[C@H]2C [Cyclopamine, cyclopamine]
  ratio of Gli3 in its repressor (Rep) form: increased
